From US9078465B2, “Choline-silicic acid complex with osmolytes and divalent trace elements” (Bio Minerals N.V., priority 2002, dated 2015)

Conditions: OSA supplementation together with inadequate Zn supplementation (low Zn diet)

## orthosilicic acid [OSA]
  Zn in serum: decreased
